Data as given in ChEMBL document CHEMBL4765410, “A cell-penetrant lactam-stapled peptide for targeting eIF4E protein-protein interactions” (Eur J Med Chem, 2020).
pIC50: −log10 of the molar value.

Chains of the proteins cited; added tags and fusions are not shown.
UniProt P06730, whole entry: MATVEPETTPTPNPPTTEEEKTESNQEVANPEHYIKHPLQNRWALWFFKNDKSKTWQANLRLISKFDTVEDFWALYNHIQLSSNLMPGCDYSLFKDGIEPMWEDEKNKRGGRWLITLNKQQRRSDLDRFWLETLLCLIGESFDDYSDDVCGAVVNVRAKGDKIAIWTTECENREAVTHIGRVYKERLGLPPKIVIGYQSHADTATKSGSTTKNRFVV

Assays:
[1] = biological target: T1, Eukaryotic translation initiation factor 4E (Homo sapiens, UniProt P06730); test: Binding affinity to recombinant human 10His-tagged eIF4E expressed in Escherichia coli BL21 (DE3) cells assessed as dissociation constant by surface plasmon resonance analysis
[2] = biological target: T1, Eukaryotic translation initiation factor 4E; test: Inhibition of recombinant human 10His-tagged eIF4E expressed in Escherichia coli BL21 (DE3) cells by catalytic enzyme-linked click chemistry assay

CC[C@H](C)[C@H](NC(=O)[C@H](CCCNC(=N)N)NC(=O)[C@@H](NC(=O)CNC(C)=O)[C@@H](C)O)C(=O)N[C@H](C(=O)N[C@@H](Cc1ccc(O)cc1)C(=O)N[C@@H](CC(=O)O)C(=O)N[C@@H](CCCNC(=N)N)C(=O)N[C@@H](CCCCN)C(=O)N[C@@H](Cc1ccccc1)C(=O)N[C@@H](CC(C)C)C(=O)N[C@@H](CCSC)C(=O)N[C@@H](CCC(=O)O)C(=O)N[C@@H](CS)C(=O)N[C@@H](CCCNC(=N)N)C(=O)N[C@@H](CC(N)=O)C(N)=O)[C@@H](C)CC
Kd [1]: 11 10^-3/s | pIC50 [2]: 7.22
